In this test the target is T1, Caspase-3 (Homo sapiens, UniProt P42574).
T1 sequence (P42574 whole entry): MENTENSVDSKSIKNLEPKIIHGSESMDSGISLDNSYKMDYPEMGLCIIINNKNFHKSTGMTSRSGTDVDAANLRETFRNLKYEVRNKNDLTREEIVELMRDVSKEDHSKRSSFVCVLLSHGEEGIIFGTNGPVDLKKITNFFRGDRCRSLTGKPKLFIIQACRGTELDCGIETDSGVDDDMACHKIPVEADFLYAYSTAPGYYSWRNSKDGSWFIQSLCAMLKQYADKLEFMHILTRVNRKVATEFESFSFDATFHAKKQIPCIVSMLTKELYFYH
Kind of test: Inhibition of caspase3.

IC50 data for one molecule are collected here from ChEMBL document CHEMBL1138183, “Design, synthesis, and biological evaluation of isoquinoline-1,3,4-trione derivatives as potent caspase-3 inhibitors” (J Med Chem, 2006).

Usually IC50 stands for the concentration at which inhibition is half-maximal. Turning to `CC(=O)N[C@@H](CC(=O)O)C(=O)N[C@@H](CCC(=O)O)C(=O)N[C@H](C(=O)N[C@H](C=O)CC(=O)O)C(C)C`, the midpoint of inhibition, the IC50, lay at 0.021 µM.
